Molecular target: Cj6OMT (Coptis japonica, UniProt Q9LEL6)

Protein sequences, listed by entry. Tags and fused reporters are not part of them.
UniProt Q9LEL6, whole entry: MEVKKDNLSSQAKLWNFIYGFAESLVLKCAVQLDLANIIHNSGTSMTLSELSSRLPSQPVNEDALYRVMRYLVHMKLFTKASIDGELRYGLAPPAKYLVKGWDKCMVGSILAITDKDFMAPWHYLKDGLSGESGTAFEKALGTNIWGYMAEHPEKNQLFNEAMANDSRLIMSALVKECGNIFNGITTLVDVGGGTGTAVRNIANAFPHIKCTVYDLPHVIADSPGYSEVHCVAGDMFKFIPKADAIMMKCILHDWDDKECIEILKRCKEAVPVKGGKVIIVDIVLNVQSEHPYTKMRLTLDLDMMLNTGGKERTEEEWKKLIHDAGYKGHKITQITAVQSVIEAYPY

COc1ccc2c(c1O)CN1CCc3cc(O)c(O)cc3C1C2 (stereo not shown)
Km: 59.5 µM

Source: paper PMC10607743, “An Enzymatic Strategy for the Selective Methylation of High-Value-Added Tetrahydroprotoberberine Alkaloids” (International Journal of Molecular Sciences, 2023)
